According to PubChem BioAssay AID493160 (Sanford-Burnham Center for Chemical Genomics, 2011):
This is a selection; strong and weak results do not stand in their true shares. Active and inactive are the calls of the source.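 How the source made its calls: active means inhibition above about 35% when tested at 20 µM (limit read from the data); inactive means the rest.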

Chains of the proteins cited; added tags and fusions are not shown. Lines headed by an entry give the natural chain unless they say otherwise; changes in a name come on top.
UniProt Q2TB90: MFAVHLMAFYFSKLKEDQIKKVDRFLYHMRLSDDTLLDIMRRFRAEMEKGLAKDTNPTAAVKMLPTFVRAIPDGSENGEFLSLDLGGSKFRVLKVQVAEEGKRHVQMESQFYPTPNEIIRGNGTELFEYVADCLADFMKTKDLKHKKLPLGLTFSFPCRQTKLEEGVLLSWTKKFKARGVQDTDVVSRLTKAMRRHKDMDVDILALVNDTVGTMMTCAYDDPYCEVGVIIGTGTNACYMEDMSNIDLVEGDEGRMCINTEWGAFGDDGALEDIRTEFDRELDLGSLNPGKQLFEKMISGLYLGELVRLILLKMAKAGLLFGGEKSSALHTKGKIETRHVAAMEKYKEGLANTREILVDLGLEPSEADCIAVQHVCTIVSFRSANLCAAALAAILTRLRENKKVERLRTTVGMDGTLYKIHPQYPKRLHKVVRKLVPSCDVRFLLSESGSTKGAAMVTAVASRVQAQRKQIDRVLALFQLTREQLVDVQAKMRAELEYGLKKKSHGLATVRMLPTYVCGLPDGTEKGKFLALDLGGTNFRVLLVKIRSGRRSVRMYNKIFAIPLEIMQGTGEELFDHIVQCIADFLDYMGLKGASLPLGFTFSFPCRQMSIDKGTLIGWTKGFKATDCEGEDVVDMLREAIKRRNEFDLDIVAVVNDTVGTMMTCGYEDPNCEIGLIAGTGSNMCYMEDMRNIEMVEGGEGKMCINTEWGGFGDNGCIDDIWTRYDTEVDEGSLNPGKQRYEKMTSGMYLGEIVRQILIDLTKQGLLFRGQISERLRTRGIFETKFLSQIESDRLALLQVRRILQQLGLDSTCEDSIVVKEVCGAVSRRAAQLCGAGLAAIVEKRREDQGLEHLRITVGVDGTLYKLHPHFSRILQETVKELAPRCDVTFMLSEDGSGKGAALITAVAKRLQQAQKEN

Each molecule was assayed against Hexokinase HKDC1 (Homo sapiens) (UniProt Q2TB90) (assay: HKDC1 hexokinase inhibitors, primary screen, biochemical, fluorescence, uHTS (AID 493160;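 further: plate controls were DMSO wells with enzyme for no effect and DMSO wells lacking enzyme for full effect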)). Conditions: recombinant HKDC1, G6PDH/diaphorase resazurin coupled fluorescence; at 20 µM; active compounds read high.

Structure (SMILES)	inhibition
CN(C)C1(CNC(=O)c2ccc(S(C)(=O)=O)cc2)CCCCC1	inactive: -2.98%
O=C(/C=C/c1ccccc1)OC1CN2CCC1CC2 (stereo not given)	inactive: -7.39%
CCCC1OP(=O)(Nc2ccccc2)OCC1CC (stereo not given)	inactive: -3.65%
O=P1(Nc2ncccn2)COc2ccccc2OC1	inactive: -2.93%
Nc1cccc([As](=O)(O)c2ccccc2)c1	inactive: -4.7%
Cc1ccc(OCC(=O)OC2CN3CCC2CC3)cc1 (stereo not given)	inactive: 2.33%
O=[As](O)(c1cccs1)c1cccs1	inactive: 3.09%
O=P1(Nc2ccc(Br)cn2)COc2ccccc2OC1	inactive: -1.75%
NS(=O)(=O)c1cccc(NC(=O)COC(=O)C(O)(c2ccccc2)c2ccccc2)c1	inactive: 1.46%
CCOP1(=S)c2c(C)nn(CCC#N)c2N=C(c2ccccc2F)N1C (stereo not given)	inactive: -8.18%
O=P(Nc1nccs1)(Oc1ccccc1)Oc1ccccc1	inactive: -0.01%
O=P(Nc1nccs1)(c1ccccc1)c1nc2ccccc2s1 (stereo not given)	inactive: 1.45%
CS(=O)(=O)c1cc([N+](=O)[O-])c2no[n+]([O-])c2c1	inactive: 3.01%
Nc1ccccc1[As](=O)(O)c1ccccc1	inactive: 12.6%
O=C(O)COc1ccc([As](=O)(O)O)cc1[N+](=O)[O-]	inactive: -4.15%
NC(=O)Nc1ccc([As](=O)(O)O)cc1	inactive: 0.92%
N#CCCN(C(=O)COC(=O)C(O)(c1ccccc1)c1ccccc1)c1ccc(F)cc1	inactive: -3.34%
CCOP1(=S)c2c(C)nn(CCC#N)c2N=C(c2ccc(F)cc2)N1C (stereo not given)	inactive: -9.94%
CN(C(=O)Cc1ccccc1)[C@@H]1CC[C@]2(CCCO2)C[C@H]1N1CCCC1	inactive: -7.79%
O=[N+]([O-])c1ccc2c(c1)nnn2O	inactive: -9.27%
CN(C)C(=O)c1cc([N+](=O)[O-])cc2c1-c1c(cc([N+](=O)[O-])cc1[N+](=O)[O-])C2=O	active: 47.6%
CN(C(=O)Cc1ccc(Cl)c(Cl)c1)[C@H]1CC[C@@]2(CCCO2)C[C@@H]1N1CCCC1	inactive: -4.68%
O=C(OC1CN2CCC1CC2)c1ccc(Cl)cc1 (stereo not given)	inactive: -9.4%
O=[As](O)(O)c1cccnc1	inactive: -2.85%
COc1cc(C(=O)NCC2(N3CCOCC3)CCCCC2)cc(Cl)c1OC(C)C	inactive: -8.81%

Structure (SMILES)	inhibition
CS(=O)(=O)c1ccc(Cl)c(NC(=O)COC(=O)C(O)(c2ccccc2)c2ccccc2)c1	inactive: 0%
Cc1cccc(OCC(=O)OC2CN3CCC2CC3)c1 (stereo not given)	inactive: 5.33%
O=[As](O)(c1cccc(O)c1)c1cccc(O)c1	inactive: -1.97%
Cc1ccc(NCCc2c([N+](=O)[O-])cc([N+](=O)[O-])cc2[N+](=O)[O-])cc1	inactive: 8.96%
Nc1cccc2c([As](=O)(O)O)cccc12	inactive: 14.9%
CCCOP(=S)(Nc1nc(N)cc(=O)[nH]1)OCCC	inactive: 3.2%
COc1cc(C2NCCC3(OCCO3)C2(C)C)cc(OC)c1OC (stereo not given)	inactive: 3.3%
CCOP(=O)(Nc1cccc2ccccc12)OCC	inactive: -6.7%
O=P1(Nc2nc3ccc(Cl)cc3s2)COc2ccccc2O1 (stereo not given)	inactive: -2.53%
CCOc1ccc(C2=NCC(CBr)S2)cc1 (stereo not given)	inactive: -13.5%
CC(C)(C)C(=O)NC(Sc1ccccc1)C(Cl)(Cl)Cl (stereo not given)	inactive: -0.93%
CCc1cc(O)c([N+](=O)[O-])c(C)c1[N+](=O)[O-]	inactive: 2.11%
Cc1ccccc1CN(C)C(=O)COC(=O)C(O)(c1ccccc1)c1ccccc1	inactive: -3.83%
C[C@H]1OP(=O)(Oc2ccccc2)C[C@@H]2O[C@@H]21 (stereo not given in full)	inactive: -0.83%
C[C@@H]1C=CCP(=O)(Oc2ccccc2)O1 (stereo not given in full)	inactive: 23%
CC(=O)c1ccc(N2CC2c2ccncc2)cc1 (stereo not given)	inactive: -2.6%
N#C/C(=C\c1ccc(N(CCBr)CCBr)cc1)C(N)=O	inactive: 5.42%
COC(=O)C1(C)COP(=O)(NCc2ccccc2)OC1 (stereo not given)	inactive: -7.94%
CC(=O)Nc1ccc([As](=O)(O)O)c(O)c1	inactive: -2.03%
CC(=O)Nc1ccc(Oc2c([N+](=O)[O-])cc([N+](=O)[O-])cc2[N+](=O)[O-])cc1	inactive: -4.01%
c1ccc(-c2nn[nH]n2)c(-c2nn[nH]n2)c1	inactive: -4.2%
Cc1ccc(NP(=O)(Oc2cccc(C)c2)Oc2cccc(C)c2)nc1	inactive: 1.71%
CCNC(=S)/N=C(\N)N[N+](=O)[O-]	inactive: -10.8%
O=C(NC1CCS(=O)(=O)C1)NP(=S)(Oc1ccccc1)Oc1ccccc1 (stereo not given)	inactive: -8.01%
O=P1(N(CCCl)CCCl)OCCC2CCCCN21 (stereo not given)	inactive: 0.64%
